Source: US20250090520A1, “DERIVATIVES OF TURBINMICIN AS ANTIFUNGAL AGENTS” (Wisconsin Alumni Research Foundation, priority 2021, published 2025)

Experiments:
Experiment in all cases: In vitro MIC susceptibility testing, broth microdilution
C. auris B 11211 = format: cell-based, Candida auris; details: Candidozyma auris, B11211, 24 h, read-out: MIC C. auris B11211
Description: In vitro MIC susceptibility testing. Turbinmicin analogs of the present disclosure were tested for antifungal activity against four Candida isolates, C. albicans K-1, C. tropicalis 98-234, C. auris B 11211, and C. glabrata 4720, and MICs were determined using a broth microdilution method for yeasts. A turbinmicin analog was dissolved in DMSO, serially diluted to 10 concentrations (0.125-64 μg/mL), and tested in a 96-well plate in RPMI medium. […] Six untreated media controls were included on each plate. The plates were incubated at 33° C. for 24 hours. The MICs were determined as the lowest concentration that inhibited visible growth. The MICs were read at 24.

C. glabrata 4720 = format: cell-based, Candida glabrata; details: Nakaseomyces glabratus, 4720, 24 h, read-out: MIC C. glabrata 4720
Description: (§1) In vitro MIC susceptibility testing. […] Six untreated media controls were included on each plate. The plates were incubated at 33° C. for 24 hours. The MICs were determined as the lowest concentration that inhibited visible growth. The MICs were read at 24.

C. tropicalis 98-234 = format: cell-based; details: Candida tropicalis, 98234, 24 h, read-out: MIC C. tropicalis 98-234
Description: as §1

C. albicans K-1 = format: cell-based; details: Candida albicans, K1, 24 h, read-out: MIC C. albicans K-1
Description: as §1

Measured: MIC

C/C=C/C=C/C=C/C(=O)O[C@@H]1C=CC[C@H]2/C(=N/Cc3ccncc3)c3c(O)c4c5c(c3O[C@H]12)OCO[C@@H]5C[C@@H]1C(=O)c2cc(C)[nH]c(=O)c2C(=O)[C@]41O [Compound T14]
> 4 µg/mL: C. auris B 11211 | C. glabrata 4720 | C. tropicalis 98-234 | C. albicans K-1
